This note sets out measurements from paper PMC10454678, “Synthesis of hydroxy benzoin/benzil analogs and investigation of their antioxidant, antimicrobial, enzyme inhibition, and cytotoxic activities” (Turkish Journal of Chemistry, 2021).

The chains behind the UniProt entries cited, without tags or fusion partners. Residues count along the entry.
UniProt P06276, 29-602: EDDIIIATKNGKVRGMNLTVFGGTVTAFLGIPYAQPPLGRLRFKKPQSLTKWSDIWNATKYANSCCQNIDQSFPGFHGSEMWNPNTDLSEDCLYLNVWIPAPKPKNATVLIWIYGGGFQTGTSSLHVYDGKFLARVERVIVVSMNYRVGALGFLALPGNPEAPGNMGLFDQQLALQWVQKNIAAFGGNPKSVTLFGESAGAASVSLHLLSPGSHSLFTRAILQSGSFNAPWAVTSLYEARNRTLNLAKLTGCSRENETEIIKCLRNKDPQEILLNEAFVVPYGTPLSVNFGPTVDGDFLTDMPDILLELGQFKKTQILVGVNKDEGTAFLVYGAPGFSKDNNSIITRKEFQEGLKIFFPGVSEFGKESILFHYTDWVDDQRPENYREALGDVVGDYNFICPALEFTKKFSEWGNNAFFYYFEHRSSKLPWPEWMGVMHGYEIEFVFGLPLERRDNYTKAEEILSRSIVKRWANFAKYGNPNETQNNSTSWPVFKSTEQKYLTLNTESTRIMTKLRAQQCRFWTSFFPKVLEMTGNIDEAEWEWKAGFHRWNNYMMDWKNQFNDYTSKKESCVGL
UniProt P22303, 32-614, species assumed: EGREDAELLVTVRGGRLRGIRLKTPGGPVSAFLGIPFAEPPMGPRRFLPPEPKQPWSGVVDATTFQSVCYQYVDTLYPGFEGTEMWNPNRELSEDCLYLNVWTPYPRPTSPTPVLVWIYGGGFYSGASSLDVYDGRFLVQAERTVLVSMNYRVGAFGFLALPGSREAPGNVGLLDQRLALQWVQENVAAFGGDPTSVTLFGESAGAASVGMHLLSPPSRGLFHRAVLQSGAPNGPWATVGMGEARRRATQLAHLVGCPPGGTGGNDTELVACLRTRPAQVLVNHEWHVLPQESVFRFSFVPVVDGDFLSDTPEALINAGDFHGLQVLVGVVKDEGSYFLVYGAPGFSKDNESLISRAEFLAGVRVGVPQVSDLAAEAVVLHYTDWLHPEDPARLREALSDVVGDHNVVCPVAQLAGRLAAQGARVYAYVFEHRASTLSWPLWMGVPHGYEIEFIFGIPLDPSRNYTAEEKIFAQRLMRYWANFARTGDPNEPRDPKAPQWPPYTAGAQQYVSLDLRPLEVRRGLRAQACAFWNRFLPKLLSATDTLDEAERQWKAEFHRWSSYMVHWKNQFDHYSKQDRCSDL

Some results are limits rather than exact numbers.

In one experiment the target is butyrylcholinesterase (Homo sapiens, UniProt P06276). It counts as biochemical. Particulars: Tris-HCl pH 8.0, 25 °C, 405 nm.
The target of a further experiment is acetylcholinesterase (Homo sapiens, UniProt P22303). It counts as biochemical. To be noted: Tris-HCl pH 8.0, 25 °C, 405 nm.

For “2-Hydroxy-1-(3-O- β -D-glucopyranosylphenyl)-2-(3-hydroxyphenyl)-ethanone; 2-Hydroxy-1-(3-hydroxyphenyl)-2-(3-O- β -D-glucopyranosylphenyl)ethanone [18a+b]”, at butyrylcholinesterase, the “BChE IC50” value is 462.26 µg/mL. Moreover, the “AChE IC50” value on acetylcholinesterase is greater than 1000 µg/mL.
